Assay results as given in patent US10858352B2, “Pharmaceutical compounds” (Heptares Therapeutics Limited, priority 2018, dated 2020).

The chains behind the UniProt entries cited, without tags or fusion partners.
UniProt P08172, whole entry: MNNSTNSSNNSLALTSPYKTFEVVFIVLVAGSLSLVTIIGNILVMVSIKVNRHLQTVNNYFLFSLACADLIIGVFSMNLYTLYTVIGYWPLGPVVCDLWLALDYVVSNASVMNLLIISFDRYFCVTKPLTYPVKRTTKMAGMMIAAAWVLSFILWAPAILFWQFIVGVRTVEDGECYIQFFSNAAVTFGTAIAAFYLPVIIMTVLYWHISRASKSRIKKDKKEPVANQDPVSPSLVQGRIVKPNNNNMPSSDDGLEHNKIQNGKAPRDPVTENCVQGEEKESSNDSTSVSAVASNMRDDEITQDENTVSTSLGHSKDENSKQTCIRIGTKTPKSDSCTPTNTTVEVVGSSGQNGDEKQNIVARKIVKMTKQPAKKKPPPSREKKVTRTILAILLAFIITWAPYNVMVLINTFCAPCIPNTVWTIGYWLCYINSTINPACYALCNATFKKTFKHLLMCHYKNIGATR
UniProt P11229, whole entry: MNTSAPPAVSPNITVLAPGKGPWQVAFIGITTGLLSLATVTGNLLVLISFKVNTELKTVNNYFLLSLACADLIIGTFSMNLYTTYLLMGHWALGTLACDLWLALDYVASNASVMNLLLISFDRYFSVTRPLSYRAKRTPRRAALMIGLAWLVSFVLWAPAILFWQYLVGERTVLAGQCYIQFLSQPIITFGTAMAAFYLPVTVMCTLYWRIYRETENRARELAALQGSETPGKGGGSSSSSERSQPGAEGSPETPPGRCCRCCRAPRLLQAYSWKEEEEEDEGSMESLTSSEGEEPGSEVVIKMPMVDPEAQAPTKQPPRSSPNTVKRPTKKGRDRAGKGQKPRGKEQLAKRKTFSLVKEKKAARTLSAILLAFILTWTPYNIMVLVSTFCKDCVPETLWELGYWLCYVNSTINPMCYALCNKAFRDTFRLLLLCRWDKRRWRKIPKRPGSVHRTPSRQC
UniProt P20309, whole entry: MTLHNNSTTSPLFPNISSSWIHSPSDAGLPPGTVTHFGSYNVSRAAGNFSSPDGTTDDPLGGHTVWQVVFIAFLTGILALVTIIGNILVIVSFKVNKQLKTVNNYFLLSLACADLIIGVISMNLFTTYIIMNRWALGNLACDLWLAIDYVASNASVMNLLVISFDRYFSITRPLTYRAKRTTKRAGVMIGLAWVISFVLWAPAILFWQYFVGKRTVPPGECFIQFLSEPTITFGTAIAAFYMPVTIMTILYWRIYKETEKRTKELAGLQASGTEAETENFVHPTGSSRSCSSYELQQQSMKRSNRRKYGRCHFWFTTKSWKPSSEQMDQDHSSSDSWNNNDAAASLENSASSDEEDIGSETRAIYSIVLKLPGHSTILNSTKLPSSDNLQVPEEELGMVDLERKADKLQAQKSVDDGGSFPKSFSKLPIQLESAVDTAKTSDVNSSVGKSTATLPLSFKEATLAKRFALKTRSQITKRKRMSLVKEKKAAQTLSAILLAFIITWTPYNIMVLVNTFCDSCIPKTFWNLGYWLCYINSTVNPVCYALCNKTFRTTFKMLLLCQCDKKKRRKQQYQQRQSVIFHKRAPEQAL
UniProt P08173, whole entry: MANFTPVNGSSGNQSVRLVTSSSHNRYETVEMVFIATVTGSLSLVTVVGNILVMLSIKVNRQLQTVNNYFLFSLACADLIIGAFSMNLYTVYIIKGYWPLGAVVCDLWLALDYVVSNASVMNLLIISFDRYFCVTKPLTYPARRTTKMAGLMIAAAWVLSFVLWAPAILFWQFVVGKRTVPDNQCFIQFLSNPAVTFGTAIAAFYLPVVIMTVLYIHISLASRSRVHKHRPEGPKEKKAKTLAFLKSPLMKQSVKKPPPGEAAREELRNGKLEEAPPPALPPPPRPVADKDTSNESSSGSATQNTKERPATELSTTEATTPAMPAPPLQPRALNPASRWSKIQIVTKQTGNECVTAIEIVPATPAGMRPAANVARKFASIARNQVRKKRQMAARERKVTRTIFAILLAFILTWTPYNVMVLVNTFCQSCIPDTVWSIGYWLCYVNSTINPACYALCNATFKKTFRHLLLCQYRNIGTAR

Experiments:
[1] = molecular target: human muscarinic M2 receptor (Homo sapiens, UniProt P08172); assay: Alphascreen Surefire phospho-ERK1/2 functional assay, M2; format: cell-based; conditions: CHO cells stably expressing human M2; for % Emax cf. ACh (M2): Emax relative to ACh; for pEC50 M2: agonist 5 min, 37° C.
[2] = molecular target: human muscarinic M1 receptor (Homo sapiens, UniProt P11229); assay: Alphascreen Surefire phospho-ERK1/2 functional assay, M1; conditions: CHO cells stably expressing human M1; for % Emax cf. ACh (M1): Emax relative to ACh; for pEC50 M1: agonist 5 min, 37° C.
[3] = molecular target: human muscarinic M3 receptor (Homo sapiens, UniProt P20309); assay: Alphascreen Surefire phospho-ERK1/2 functional assay, M3; format: cell-based; conditions: CHO cells stably expressing human M3; for % Emax cf. ACh (M3): Emax relative to ACh; for pEC50 M3: agonist 5 min, 37° C.
[4] = molecular target: human muscarinic M4 receptor (Homo sapiens, UniProt P08173); assay: Alphascreen Surefire phospho-ERK1/2 functional assay, M4; format: cell-based; conditions: CHO cells stably expressing human M4; for % Emax cf. ACh (M4): Emax relative to ACh; for pEC50 M4: agonist 5 min, 37° C.

% Emax cf. ACh (M2) [1]	pEC50 M2 [1]	% Emax cf. ACh (M1) [2]	pEC50 M1 [2]	% Emax cf. ACh (M3) [3]	pEC50 M3 [3]	% Emax cf. ACh (M4) [4]	pEC50 M4 [4]	Structure (SMILES)
(14) %	<4.70	(76) %	6.92	(15) %	<4.70	(21) %	<4.70	CCN(C)C(=O)[C@H]1[C@@H]2CN(C3CCC4(C3)CN(c3nc(C)no3)C4)C[C@@H]21 (single isomer, unassigned)
(18) %	<4.70	(113) %	6.60	(6) %	<4.70	(75) %	5.33	Cc1noc(N2CC3CCC2CC3N2CCC(C(=O)NC3(C)CCC3)CC2)n1 (single isomer, unassigned)
(62) %	6.36	(108) %	7.49	(13) %	<4.70	(104) %	7.41	Cc1noc(N2CC3CCC2CC3N2CCC(C(=O)NCC3(C)CCC3)CC2)n1 (single isomer, unassigned) [12-16 Isomer 1]
(10) %	<4.70	(118) %	7.28	(4) %	<4.70	(62) %	6.25	Cc1noc(N2CC3CCC2CC3N2CCC(C(=O)NCC3(C)CCC3)CC2)n1 (single isomer, unassigned) [12-16 Isomer 2]
